In patent EP4678638A1, “NEW E3 UBIQUITIN LIGASE LIGAND, PROTEIN DEGRADATION AGENT AND USE THEREOF” (priority 2023, dated 2024):

How the values were obtained:
Assay type in all cases: cell-based
MCF7 = assay: CCK-8 proliferation, MCF7 (MCF-7); settings: Homo sapiens, read-out: Inhibitory activity (IC50) on tumor cell proliferation, MCF-7
Method: (§1) The tumor cells used herein were cultured in a cell culture medium listed in table A1 at 37°C in an incubator with 5% CO2. Prior to experimentation, all cell lines used were correctly identified by STR profiling, and tested negative for mycoplasma contamination using a mycoplasma detection kit through routine screenings. Table A1. Tumor cells and cell culture medium used in the present disclosure
(§2) IC50 values of the compounds of the present disclosure (including the compounds in Table 1, and compounds of examples) were measured using the Meilun Cell Counting Kit-8 kit from Dalian Meilun Biotech Co., Ltd. Assay details are as follows: tumor cells were seeded in a 96-well plate at a density listed in Table A2. After 24h, 100 µL of the inoculated cells were treated with 0.5µL of the compounds of the present disclosure (including the compounds in Tables 1 and 2, and compounds of examples) at 10 different successively decreasing concentrations (starting at the highest concentration of 10µM; 5-fold serial dilutions). […] The growth inhibition of the compounds of the present disclosure on cells was plotted by Prism Graphpad software, and the IC50 values of the compounds of the present disclosure were calculated therefrom. […]

MM.1S = assay: CCK-8 proliferation, MM.1S; settings: Homo sapiens, MM1.S, 72 hours, read-out: Inhibitory activity (IC50) on tumor cell proliferation, MM1S
Method: as §1, §2

MDA-MB-231 = assay: CCK-8 proliferation, MDA-MB-231; settings: Homo sapiens, 96 hours, read-out: Inhibitory activity (IC50) on tumor cell proliferation, MDA-MB-231
Method: as §1, §2

IC50 (MCF7): > 10 µM | IC50 (MM.1S): 5 to 10 µM | IC50 (MDA-MB-231): > 10 µM
SMILES: Nc1cccc2c1CN(C1CCC(=O)NC1=O)C2=O (stereo not drawn) [lenalidomide, reference compound]
